Changes are numbered by the printed parent chain.
Experiments:
[1] = target: T1, GIPR R336P (Homo sapiens, UniProt P48546, R336P); conditions: GIPR R336P (6.35), mean, n = 4, duplicate
T1 sequence (P48546 22-466 R336P): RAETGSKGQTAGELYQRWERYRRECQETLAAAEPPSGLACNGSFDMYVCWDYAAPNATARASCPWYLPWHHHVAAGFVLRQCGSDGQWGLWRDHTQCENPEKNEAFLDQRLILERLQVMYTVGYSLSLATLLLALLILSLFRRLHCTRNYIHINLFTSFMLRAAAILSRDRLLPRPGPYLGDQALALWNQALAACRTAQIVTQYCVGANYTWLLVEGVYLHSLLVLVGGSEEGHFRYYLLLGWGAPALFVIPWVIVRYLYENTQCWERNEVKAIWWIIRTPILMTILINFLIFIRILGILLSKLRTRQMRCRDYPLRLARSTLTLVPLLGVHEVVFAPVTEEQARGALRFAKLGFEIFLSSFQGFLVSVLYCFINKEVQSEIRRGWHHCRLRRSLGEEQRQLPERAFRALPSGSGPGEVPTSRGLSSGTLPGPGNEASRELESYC

[2] = target: T2, GIPR L261H (Homo sapiens, UniProt P48546, L261H); assay: cAMP accumulation; assay type: cell-based
T2 construct: host or cells: HEK293

[3] = target: T3, GIPR T116R (Homo sapiens, UniProt P48546, T116R); assay: cAMP accumulation; assay type: cell-based; set-up: host or cells: HEK293
T3 sequence (P48546 22-466 T116R): T1 sequence (P48546 22-466 R336P) with T95R, P315R

[4] = target: T4, GIPR S415I (Homo sapiens, UniProt P48546, S415I); conditions: GIPR S415I (ICD), mean, n = 3, duplicate
T4 sequence (P48546 22-466 S415I): T1 sequence (P48546 22-466 R336P) with P315R, S394I

[5] = target: T5, GIPR R12Q (Homo sapiens, UniProt P48546); assay: cAMP accumulation; assay type: cell-based; set-up: host or cells: HEK293
T5 sequence (P48546 22-466): T1 sequence (P48546 22-466 R336P) with P315R

[6] = target: T6, GIPR I378M (Homo sapiens, UniProt P48546, I378M); conditions: HEK293A, 1 µM GIP minus vehicle, n = 4, P = 0.0023
T6 sequence (P48546 22-466 I378M): T1 sequence (P48546 22-466 R336P) with P315R, I357M

In the case of “glucose-dependent insulinotropic polypeptide [GIP]”, the “logEC50 (Arrestin)” value ([1]; Hill slope 1.0) is reported as -8.8, the “Arrestin (Emax)” value ([1]; normalized to WT GIPR) is reported as 21 and the “cAMP (Emax)” value ([2]; HEK293, GIP(1–42) 1 pM–100 nM, 30 min 37 °C, mean of n = 4) is reported as 113 % of WT GIPR activity. For the same substance, the “logEC50 (cAMP)” value ([2]; HEK293, Hill slope 1.0, mean of n = 4) was -9.7, the “cAMP signalling up to 100 nM GIP” value [3] was “unable to signal” and the “logEC50 (Arrestin)” value ([4]; Hill slope 1.0) was -9.1. The “Arrestin (Emax)” value ([4]; normalized to WT GIPR) was 93, the “cAMP (Emax)” value ([5]; HEK293, GIP(1–42) 1 pM–100 nM, 30 min 37 °C, mean of n = 6) was 86 % of WT GIPR activity and the “logEC50 (cAMP)” value ([5]; HEK293, Hill slope 1.0, mean of n = 6) was -11.4. The “Mean of ΔBRET” value [6] was 0.1166.
